Experimental data reported in patent publication US20210395313A1, “PEPTIDE PAC1 ANTAGONISTS” (AMGEN INC., priority 2017, published 2021).

Key:
[1] = biological target: T1, rat PAC1 receptor (Rattus norvegicus, UniProt P32215); experiment: LANCE Ultra cAMP accumulation antagonist assay in RG-2 cells; assay type: cell-based;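 further: RG-2 rat glioma cells endogenously expressing PAC1, test peptide preincubated 30 min, then PAC1 agonist added at its EC80 for 15 min, cAMP accumulation read by LANCE Ultra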
T1 construct: SHSY-5Y (human neuroblastoma cell line) and RG-2 (rat glioma cell line) cells endogenously express human and rat PAC1 receptors, respectively; endogenous in cells; host or cells: RG-2 rat glioma cells
T1 sequence (P32215 20-523): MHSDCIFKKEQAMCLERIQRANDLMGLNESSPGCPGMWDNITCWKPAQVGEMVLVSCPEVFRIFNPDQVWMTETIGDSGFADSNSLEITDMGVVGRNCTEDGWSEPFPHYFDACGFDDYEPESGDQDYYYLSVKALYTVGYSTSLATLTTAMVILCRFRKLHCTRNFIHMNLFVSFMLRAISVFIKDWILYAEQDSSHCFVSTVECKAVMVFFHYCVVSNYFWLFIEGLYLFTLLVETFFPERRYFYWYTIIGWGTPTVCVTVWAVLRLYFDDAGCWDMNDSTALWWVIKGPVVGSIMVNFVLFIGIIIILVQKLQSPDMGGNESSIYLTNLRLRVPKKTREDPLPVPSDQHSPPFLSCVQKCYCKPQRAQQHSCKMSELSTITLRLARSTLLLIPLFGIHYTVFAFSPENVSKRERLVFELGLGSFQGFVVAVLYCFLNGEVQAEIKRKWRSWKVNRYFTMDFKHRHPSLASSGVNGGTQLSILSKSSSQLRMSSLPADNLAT

[2] = biological target: T2, human PAC1 receptor (Homo sapiens, UniProt P41586); experiment: LANCE Ultra cAMP accumulation antagonist assay in SHSY-5Y cells; assay type: cell-based;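 further: inhibition of cAMP accumulation evoked by PAC1 agonist at its EC80 in SHSY-5Y cells endogenously expressing receptor, 30 min preincubation then 15 min agonist, TR-FRET readout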
T2 construct: SHSY-5Y (human neuroblastoma cell line) and RG-2 (rat glioma cell line) cells endogenously express human and rat PAC1 receptors, respectively; endogenous in cells; host or cells: SHSY-5Y human neuroblastoma cells
T2 sequence (P41586 21-468): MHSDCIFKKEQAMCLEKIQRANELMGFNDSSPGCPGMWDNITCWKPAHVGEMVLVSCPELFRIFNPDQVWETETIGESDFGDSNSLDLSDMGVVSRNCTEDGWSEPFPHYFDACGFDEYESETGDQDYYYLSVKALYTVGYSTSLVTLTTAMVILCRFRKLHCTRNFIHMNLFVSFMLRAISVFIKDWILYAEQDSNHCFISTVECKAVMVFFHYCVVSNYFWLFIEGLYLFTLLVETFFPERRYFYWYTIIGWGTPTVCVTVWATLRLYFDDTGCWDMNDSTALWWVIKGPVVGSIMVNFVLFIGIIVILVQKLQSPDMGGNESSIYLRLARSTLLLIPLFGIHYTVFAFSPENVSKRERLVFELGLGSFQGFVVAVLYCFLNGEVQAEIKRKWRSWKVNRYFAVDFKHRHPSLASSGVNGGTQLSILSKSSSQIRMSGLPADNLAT

SMILES | IC50 [1] | IC50 [2]
CCCC[C@H](NC(=O)[C@@H]1CSSC[C@H](NC(=O)[C@H](CC(=O)O)NC(=O)[C@H](CC(=O)O)NC(=O)[C@@H](NC(=O)[C@H](C)NC(=O)[C@H](CCCCN)NC(=O)[C@H](CCCNC(=N)N)NC(=O)[C@H](Cc2ccccc2)NC(=O)[C@H](CCC(N)=O)NC(=O)[C@@H]2CSSC[C@H](N)C(=O)N[C@@H](CC(=O)O)C(=O)N[C@@H](C)C(=O)N[C@@H]([C@@H](C)O)C(=O)N2)[C@@H](C)CC)C(=O)N[C@@H](CC(=O)O)C(=O)N[C@@H](CCCCN)C(=O)N[C@@H](CCC(N)=O)C(=O)N[C@@H](C)C(=O)N[C@@H](Cc2c[nH]cn2)C(=O)N[C@@H](Cc2c[nH]cn2)C(=O)N[C@@H](CO)C(=O)N[C@@H](CO)C(=O)N[C@@H](Cc2ccccc2)C(=O)N[C@@H](CCCCN)C(=O)NC(C)(C)C(=O)N1)C(=O)N[C@@H](CCCCN)C(=O)N[C@@H](CCC(N)=O)C(=O)N[C@@H](CCCCN)C(=O)N[C@@H](CCCCN)C(=O)N[C@@H](CCCCN)C(=O)N[C@@H](CCC(=O)O)C(=O)N[C@@H](Cc1ccccc1)C(=O)N[C@@H](CCCCN)C(N)=O [compound 274] | 1 to 100 nM | 1 to 100 nM
CCCC[C@H](NC(=O)[C@@H]1CSSC[C@H](NC(=O)[C@H](CC(=O)O)NC(=O)[C@H](CC(=O)O)NC(=O)[C@@H](NC(=O)[C@H](C)NC(=O)[C@H](CCCCN)NC(=O)[C@H](CCCNC(=N)N)NC(=O)[C@H](Cc2ccccc2)NC(=O)[C@H](CCC(N)=O)NC(=O)[C@@H]2CSSC[C@H](NC(C)=O)C(=O)N[C@@H](CC(=O)O)C(=O)N[C@@H](C)C(=O)N[C@@H]([C@@H](C)O)C(=O)N2)[C@@H](C)CC)C(=O)N[C@@H](CCC(N)=O)C(=O)N[C@@H](CCCCN)C(=O)N[C@@H](CCC(N)=O)C(=O)N[C@@H](C)C(=O)N[C@@H](Cc2c[nH]cn2)C(=O)N[C@@H](Cc2c[nH]cn2)C(=O)N[C@@H](CO)C(=O)N[C@@H](CC(N)=O)C(=O)N[C@@H](C(C)C)C(=O)N2CCC[C@H]2C(=O)NCC(=O)N[C@@H](CO)C(=O)N[C@@H](C(C)C)C(=O)N[C@@H](Cc2ccccc2)C(=O)N[C@@H](CCCCN)C(=O)NC(C)(C)C(=O)N1)C(=O)N[C@@H](CCCCN)C(=O)N[C@@H](CCC(N)=O)C(=O)N[C@@H](CCCCN)C(=O)N[C@@H](CCCCN)C(=O)N[C@@H](CCCCN)C(=O)N[C@@H](CCC(=O)O)C(=O)N[C@@H](Cc1ccccc1)C(=O)N[C@@H](CCCCN)C(N)=O [compound 260] | 0.01 to 1 nM | 1 to 100 nM
CCCC[C@H](NC(=O)[C@@H]1CSSC[C@H](NC(=O)[C@H](CC(=O)O)NC(=O)[C@H](CC(=O)O)NC(=O)[C@@H](NC(=O)[C@H](C)NC(=O)[C@H](CCCCN)NC(=O)[C@H](CCCNC(=N)N)NC(=O)[C@H](Cc2ccccc2)NC(=O)[C@H](CCC(N)=O)NC(=O)[C@@H]2CSSC[C@H](N)C(=O)N[C@@H](CC(=O)O)C(=O)N[C@@H](C)C(=O)N[C@@H]([C@@H](C)O)C(=O)N2)[C@@H](C)CC)C(=O)N[C@@H](CC(=O)O)C(=O)N[C@@H](CCCCN)C(=O)N[C@@H](CCC(N)=O)C(=O)N[C@@H](C)C(=O)N[C@@H](Cc2c[nH]cn2)C(=O)N[C@@H](Cc2c[nH]cn2)C(=O)N[C@@H](CO)C(=O)N[C@@H](CO)C(=O)N[C@@H](C(C)C)C(=O)N[C@@H](Cc2ccccc2)C(=O)N[C@@H](CCCCN)C(=O)NC(C)(C)C(=O)N1)C(=O)N[C@@H](CCCCN)C(=O)N[C@@H](CCC(N)=O)C(=O)N[C@@H](CCCCN)C(=O)N[C@@H](CCCCN)C(=O)N[C@@H](CCCCN)C(=O)N[C@@H](CCC(=O)O)C(=O)N[C@@H](Cc1ccccc1)C(=O)N[C@@H](CCCCN)C(N)=O [compound 218] | 1 to 100 nM | 1 to 100 nM
CC[C@H](C)[C@H](NC(=O)[C@H](C)NC(=O)[C@H](CCCCN)NC(=O)[C@H](CCCNC(=N)N)NC(=O)[C@H](Cc1ccccc1)NC(=O)[C@H](CCC(N)=O)NC(=O)[C@@H]1CSSC[C@H](N)C(=O)N[C@@H](CC(=O)O)C(=O)N[C@@H](C)C(=O)N[C@@H]([C@@H](C)O)C(=O)N1)C(=O)N[C@@H](CC(=O)O)C(=O)N[C@@H](CC(=O)O)C(=O)N[C@H]1CSSC[C@@H](C(=O)N[C@@H](CCSC)C(=O)N[C@@H](CCCCN)C(=O)N[C@@H](CCC(N)=O)C(=O)N[C@@H](CCCCN)C(=O)N[C@@H](CCCCN)C(=O)N[C@@H](CCCCN)C(=O)N[C@@H](CCC(=O)O)C(=O)N[C@@H](Cc2c[nH]c3ccccc23)C(=O)N[C@@H](CCCCN)C(=O)N[C@@H](C)C(=O)N[C@@H](CC(N)=O)C(=O)O)NC(=O)C(C)(C)NC(=O)[C@H](CCCCN)NC(=O)[C@H](Cc2ccccc2)NC(=O)[C@H](C(C)C)NC(=O)[C@H](CO)NC(=O)CNC(=O)[C@@H]2CCCN2C(=O)[C@H](C(C)C)NC(=O)[C@H](CC(N)=O)NC(=O)[C@H](CO)NC(=O)[C@H](Cc2c[nH]cn2)NC(=O)[C@H](Cc2c[nH]cn2)NC(=O)[C@H](C)NC(=O)[C@H](CCC(N)=O)NC(=O)[C@H](CCCCN)NC(=O)[C@H](CCC(N)=O)NC1=O [compound 162] | 0.01 to 1 nM | 1 to 100 nM
CCCC[C@H](NC(=O)[C@@H]1CSSC[C@H](NC(=O)[C@H](CC(=O)O)NC(=O)[C@H](CC(=O)O)NC(=O)[C@@H](NC(=O)[C@H](C)NC(=O)[C@H](CCCCN)NC(=O)[C@H](CCCNC(=N)N)NC(=O)[C@H](Cc2ccccc2)NC(=O)[C@H](CCC(N)=O)NC(=O)[C@@H]2CSSC[C@H](N)C(=O)N[C@@H](CC(=O)O)C(=O)N[C@@H](C)C(=O)N[C@@H]([C@@H](C)O)C(=O)N2)[C@@H](C)CC)C(=O)N[C@@H](CC(=O)O)C(=O)N[C@@H](CCCCN)C(=O)N[C@@H](CCC(N)=O)C(=O)N[C@@H](C)C(=O)N[C@@H](Cc2c[nH]cn2)C(=O)N[C@@H](Cc2c[nH]cn2)C(=O)N[C@@H](CO)C(=O)N[C@@H](CC(N)=O)C(=O)N[C@@H](C(C)C)C(=O)N2CCC[C@H]2C(=O)N[C@@H](CO)C(=O)N[C@@H](C(C)C)C(=O)N[C@@H](Cc2ccccc2)C(=O)N[C@@H](CCCCN)C(=O)NC(C)(C)C(=O)N1)C(=O)N[C@@H](CCCCN)C(=O)N[C@@H](CCC(N)=O)C(=O)N[C@@H](CCCCN)C(=O)N[C@@H](CCCCN)C(=O)N[C@@H](CCCCN)C(=O)N[C@@H](CCC(=O)O)C(=O)N[C@@H](Cc1ccccc1)C(=O)N[C@@H](CCCCN)C(=O)N[C@@H](C)C(=O)NCC(N)=O [compound 248] | 0.01 to 1 nM | 1 to 100 nM
CC[C@H](C)[C@H](NC(=O)[C@H](C)NC(=O)[C@H](CCCCN)NC(=O)[C@H](CCCNC(=N)N)NC(=O)[C@H](Cc1ccccc1)NC(=O)[C@H](CCC(N)=O)NC(=O)[C@@H]1CSSC[C@H](N)C(=O)N[C@@H](CC(=O)O)C(=O)N[C@@H](C)C(=O)N[C@@H]([C@@H](C)O)C(=O)N1)C(=O)N[C@@H](CC(=O)O)C(=O)N[C@@H](CC(=O)O)C(=O)N[C@H]1CSSC[C@@H](C(=O)N[C@@H](CCSC)C(=O)N[C@@H](CCCCN)C(=O)N[C@@H](CCC(N)=O)C(=O)N[C@@H](CCCCN)C(=O)N[C@@H](CCCCN)C(=O)N[C@@H](CCCCN)C(=O)N[C@@H](CCC(=O)O)C(=O)N[C@@H](Cc2ccccc2)C(=O)N[C@@H](CCCCN)C(=O)N[C@@H](C)C(=O)NCC(N)=O)NC(=O)C(C)(C)NC(=O)[C@H](CCCCN)NC(=O)[C@H](Cc2ccccc2)NC(=O)[C@H](CO)NC(=O)CNC(=O)[C@@H]2CCCN2C(=O)[C@H](C(C)C)NC(=O)[C@H](CC(N)=O)NC(=O)[C@H](CO)NC(=O)[C@H](Cc2c[nH]cn2)NC(=O)[C@H](Cc2ccc(O)cc2)NC(=O)[C@H](C)NC(=O)[C@H](CCC(N)=O)NC(=O)[C@H](CCCCN)NC(=O)[C@H](CC(=O)O)NC1=O [compound 201] | 0.01 to 1 nM | –
CC[C@H](C)[C@H](NC(=O)[C@H](C)NC(=O)[C@H](CCCCN)NC(=O)[C@H](CCCNC(=N)N)NC(=O)[C@H](Cc1ccccc1)NC(=O)[C@H](CCC(N)=O)NC(=O)[C@@H]1CSSC[C@H](N)C(=O)N[C@@H](CC(=O)O)C(=O)N[C@@H](C)C(=O)N[C@@H]([C@@H](C)O)C(=O)N1)C(=O)N[C@@H](CC(=O)O)C(=O)N[C@@H](CC(=O)O)C(=O)N[C@H]1CSSC[C@@H](C(=O)N[C@@H](CCSC)C(=O)N[C@@H](CCCCN)C(=O)N[C@@H](CCC(N)=O)C(=O)N[C@@H](CCCCN)C(=O)N[C@@H](CCCCN)C(=O)N[C@@H](CCCCN)C(=O)N[C@@H](CCC(=O)O)C(=O)N[C@@H](Cc2ccccc2)C(=O)N[C@@H](CCCCN)C(=O)N[C@@H](C)C(=O)NCC(N)=O)NC(=O)C(C)(C)NC(=O)[C@H](CCCCN)NC(=O)[C@H](Cc2ccccc2)NC(=O)[C@H](C(C)C)NC(=O)[C@H](CO)NC(=O)[C@H](CC(N)=O)NC(=O)CNC(=O)[C@H](C(C)C)NC(=O)[C@H](CC(N)=O)NC(=O)[C@H](CO)NC(=O)[C@H](Cc2c[nH]cn2)NC(=O)[C@H](Cc2c[nH]cn2)NC(=O)[C@H](C)NC(=O)[C@H](CCC(N)=O)NC(=O)[C@H](CCCCN)NC(=O)[C@H](CCC(N)=O)NC1=O [compound 194] | 0.01 to 1 nM | –
